Laboratory results as given in publication PMC4844587, “PET imaging of cyclooxygenase-2 (COX-2) in a pre-clinical colorectal cancer model” (EJNMMI Research, 2016).

Experiments:
HCA-7 cells [1] = experiment: cells; details: Homo sapiens, HCA-7, read-out: Inhibition of radiotracer uptake
HCA-7 cells [2] = details: 10 and 100 μM

Compound | inhibition at 10 µM (HCA-7 cells [1]) [%] | inhibition at 100 µM (HCA-7 cells [1]) [%] | Blocking of [^18F]Pyricoxib uptake (HCA-7 cells [2])
CS(=O)(=O)c1ccc(-c2cc(C(F)(F)F)nc(NCc3ccc(F)cc3)n2)cc1 [Pyricoxib, N-(4-fluorobenzyl)-4-[4-(methylsulfonyl)-phenyl]-6-(trifluoro-methyl)pyrimidin-2-amine] | 35 | 50 | 
CS(=O)(=O)c1ccc(-n2nc(C(F)(F)F)cc2-c2ccc(F)cc2)cc1 [SC58125] |  |  | blocked uptake of [^18F]Pyricoxib in HCA-7 cells in a concentration-dependent manner
